What was measured:
[1] = Drug-drug compatibility test under accelerated stability conditions (content and related substances by HPLC, appearance); conditions: for Content (SGLT-2 inhibitor): second value of the cell in mixtures
Experimental: A drug-drug compatibility test was conducted to identify an optimal combination of an angiotensin II receptor blocker (ARB) and a sodium-glucose cotransporter-2 (SGLT-2) inhibitor that remains stable without degradation during long-term storage.
Specifically, mixtures of an ARB and an SGLT-2 inhibitor were stored for 2 weeks under accelerated stability test conditions of 40±2°C and 75±5% relative humidity, and changes in the contents of the respective ingredients and related substances, as well as changes in appearance, such as color and agglomeration, were analyzed. Olmesartan, valsartan, and telmisartan were used as the ARBs, and empagliflozin, dapagliflozin propanediol monohydrate, and canagliflozin were used as the SGLT-2 inhibitors.
To analyze the contents of the active ingredients and the degree of formation of related substances, ten tablets of each mixture of the ARB and the SGLT-2 inhibitor stored for 1 week or 2 weeks were placed in each of three 100 mL flasks. A solution prepared by mixing a 0.01 M aqueous hydrochloric acid solution and acetonitrile at an appropriate ratio was added to extract the active ingredients, followed by stirring and HPLC analysis.
To evaluate appearance and viscosity, 10 g of each mixture of the ARB and the SGLT-2 inhibitor stored for 1 week or 2 weeks was exposed to 100 mL of purified water at room temperature for 10 minutes, and the appearance and viscosity of the mixture were then evaluated.

[2] = Nonclinical 13-week repeated oral administration: body weight; conditions: 13 weeks
Experimental: Ten male and ten female 6-week-old Sprague-Dawley rats per group were orally administered the test substances once daily for 13 weeks. During the test period, general clinical signs were observed, blood tests were performed, and urinary excretion volume was measured. After completion of the observation period, the rats were euthanized and necropsied, and the heart weight was measured.
Dapagliflozin propanediol hydrate was used as dapagliflozin, and telmisartan powder (23.9%) was used as telmisartan, each in an amount corresponding to the respective dose.
Dapagliflozin and/or telmisartan, alone or in combination, were repeatedly administered orally to normal SD rats for 13 weeks in the same manner as in Experimental Example 1-1, and body weight was measured.

[3] = Accelerated, Week 1, 40±2°C, 75±5% relative humidity
[4] = Accelerated, Week 2, 40±2°C, 75±5% relative humidity

Row | SMILES | Appearance [1, 3] | Appearance [1, 4] | Appearance ([1]; Initial) | Content (SGLT-2 inhibitor) [1, 3] [%] | Content (SGLT-2 inhibitor) [1, 4] [%] | Content (SGLT-2 inhibitor) ([1]; Initial) [%] | body weight ([2]; female or male rats, dapagliflozin-alone administration group (9 mg/kg/day)) | body weight ([2]; female rats, telmisartan-alone administration group (72 mg/kg/day))
1 | Cc1ccc([C@@H]2O[C@H](CO)[C@@H](O)[C@H](O)[C@H]2O)cc1Cc1ccc(-c2ccc(F)cc2)s1 | Unacceptable | Unacceptable | Acceptable | – | – | – | – | –
2 | OC[C@H]1O[C@@H](c2ccc(Cl)c(Cc3ccc(O[C@H]4CCOC4)cc3)c2)[C@H](O)[C@@H](O)[C@@H]1O | Acceptable | Acceptable | Acceptable | – | – | – | – | –
3 | CCOc1ccc(Cc2cc([C@@H]3O[C@H](CO)[C@@H](O)[C@H](O)[C@H]3O)ccc2Cl)cc1 | Acceptable | Acceptable | Acceptable | 100.1 | 100.2 | 100.3 | no significant reduction | –

The next lines start with results.

Row | Appearance [1, 3] | Appearance [1, 4] | Appearance ([1]; Initial) | Content (SGLT-2 inhibitor) [1, 3] [%] | Content (SGLT-2 inhibitor) [1, 4] [%] | Content (SGLT-2 inhibitor) ([1]; Initial) [%] | SMILES | body weight ([2]; female or male rats, dapagliflozin-alone administration group (9 mg/kg/day)) | body weight ([2]; female rats, telmisartan-alone administration group (72 mg/kg/day))
4 | Acceptable | Acceptable | Acceptable | – | – | – | CCCCC(=O)N(Cc1ccc(-c2ccccc2-c2nnn[nH]2)cc1)[C@H](C(=O)O)C(C)C | – | –
5 | Acceptable | Acceptable | Acceptable | – | – | – | CCCc1nc2c(C)cc(-c3nc4ccccc4n3C)cc2n1Cc1ccc(-c2ccccc2C(=O)O)cc1 | – | no significant reduction
